Test results published in PMC6344135, “Analgesic effects of the cathepsin K inhibitor L-006235 in the monosodium iodoacetate model of osteoarthritis pain” (Pain Reports, 2018).
Where two headings read alike, the source gives them in different places.

By UniProt entry, the sequences of proteins in these tests, tags left out. Residues count along the entry.
UniProt O35186, 115-329 limits assumed: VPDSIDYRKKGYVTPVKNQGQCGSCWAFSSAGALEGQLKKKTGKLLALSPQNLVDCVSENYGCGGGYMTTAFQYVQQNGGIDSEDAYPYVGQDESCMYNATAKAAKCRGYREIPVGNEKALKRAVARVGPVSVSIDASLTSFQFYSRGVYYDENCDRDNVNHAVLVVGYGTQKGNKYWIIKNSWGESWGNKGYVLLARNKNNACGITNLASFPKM

Tests used:
[1] = target: rat cathepsin K (Rattus norvegicus, UniProt O35186); test: Inhibition of rat cathepsin K; assay type: biochemical; conditions: read-out: IC50 against rat cathepsin K; no method or reference given
[2] = test system: monosodium iodoacetate rat model of OA pain; test: Weight-bearing asymmetry in the MIA model of OA pain
Procedure: (§1) Rats were briefly anesthetized (isoflurane 2.5%–3% in 100% O2), and once areflexic received a single intra-articular injection of 1 mg MIA (Sigma, Gillingham, Dorset, United Kingdom) in 50-μL saline or 50-μL saline through the infrapatellar ligament of the left knee.[37] Pain behaviour was assessed at baseline before injection (day 0) and then after intra-articular injection twice weekly. Weight distribution on the left (ipsilateral) and right (contralateral) hind limb was assessed using an incapacitance tester (Linton Instrumentation Diss, Norfolk, United Kingdom) as previously described.[37] Changes in hind paw withdrawal thresholds (PWTs) were assessed using von Frey monofilaments; Linton Instrumentation, Norfolk, United Kingdom (Semmes-Weinstein monofilaments of bending forces 0.4–26 g) as previously described.[37]
(§2) In the first study, the effects of preventative treatment with 30-mg/kg L-006235 were studied. In the second study, the effects of preventative treatment with 30-mg/kg and 100-mg/kg L-006235 were studied. Rats received either vehicle (20% HP-β-CD) or L-006235 starting 1 day before MIA injection. L-006235 was administered orally twice a day for a total of 28 days (day −1 to 27 after MIA injection). Pain behaviour was measured at baseline before MIA injection and then twice a week until day 27. Pain behaviour was measured before the first dose of the day and was measured 24 hours after blood sampling (see below). In the third study, L-006235 was given once pain behaviour was established in the MIA model (therapeutic protocol). In this case, all rats received oral treatment with vehicle (twice daily) for the first 14 days after intra-articular injection of MIA. On day 14, half of the rats continued receiving vehicle and the other half received L-006235 (100 mg/kg) twice daily for 27 days (day 14–41 after MIA injection). As with the preventative study, pain behaviour was measured before the MIA injection and then twice a week until day 41 after injection. Similarly, behaviour was measured before rats received the first oral dose each day and was measured 24 hours after blood sampling (see below). See Table 1 for group sizes and Figure 1 for further study design.
All statistics were calculated using Prism 5.0 or 7.0 software (Graphpad, La Jolla, CA). Weight-bearing data were analysed with a 2-way analysis of variance (ANOVA) with a Bonferroni post hoc test. Hind PWTs were log-transformed before analysis with 2-way ANOVA with a Bonferroni post hoc test. Differences between the area under the curve for weight bearing and the log-transformed PWTs were analysed using a 1-way ANOVA. Data were considered significant if P values were less than 0.05. Differences in the expression of the cathepsin K mRNA between saline and MIA-injected rats, and the differences in GFAP immunoreactivity between L-006235 and vehicle-dosed MIA rats were compared with an unpaired t test. The statistical interaction between weight bearing and each OA feature (cartilage damage, osteophytes, or synovitis) was examined using a product term for Treatment Group*OA Pathology. Statistical significance of the interaction term provides a measure of the association between weight-bearing pain behaviour and OA pathology, and the effect of L-006235 on this association.

[3] = test system: monosodium iodoacetate rat model of OA pain; test: Hind paw withdrawal thresholds (von Frey) in the MIA model
Procedure: as §1
as §2, with “In the third study, L-006235 was given once pain behaviour was established in the MIA model (therapeutic protocol). In this case, all rats received oral treatment with vehicle (twice daily) for the first 14 days after intra-articular injection of MIA. On day 14, half of the rats continued receiving vehicle and the other half received L-006235 (100 mg/kg) twice daily for 27 days (day 14–41 after MIA injection).” left out, “See Table 1 for group sizes and Figure 1 for further study design.” left out
All statistics were calculated using Prism 5.0 or 7.0 software (Graphpad, La Jolla, CA). Weight-bearing data were analysed with a 2-way analysis of variance (ANOVA) with a Bonferroni post hoc test. […] Differences between the area under the curve for weight bearing and the log-transformed PWTs were analysed using a 1-way ANOVA. […]

[4] = test system: monosodium iodoacetate rat model of OA pain; test: Histological scoring of knee joint pathology in the MIA model
Procedure: On day 27 (preventative studies) or day 41 (therapeutic study), rats underwent a final pain behaviour assessment and then were euthanized with sodium pentobarbital and transcardially perfused with saline, followed by 4% paraformaldehyde (in 0.1-M phosphate-buffered saline). Tibiofemoral joints with the synovia attached were dissected and postfixed in paraformaldehyde for 48 hours and were then transferred into ethylenediaminetetraacetic acid (EDTA) solution for decalcification. Knees were then sectioned for staining with haematoxylin and eosin.[10] The pathology scoring was performed on 3 stained sections per rat[10] as previously described.[37] Cartilage damage and osteophytes were scored using the Janusz method as previously described.[17] Cartilage damage was evaluated from 1 (minimal superficial damage) to 5 (severe full-thickness degeneration to tidemark). This score was multiplied by the extent of cartilage area involved (1/3, 2/3 or 3/3) to give a maximum score of 15. Osteophytes were graded from 1 to 3 for mild (<40 µm), moderate (40–160 µm), or severe (>160 µm). Synovitis was scored to assess lining thickness and cellularity from a scale of 0 (lining layer, 1–2 cells thick) to 3 (lining layer >9 cells thick and/or severe increase in cellularity).[2]

[5] = test system: CD68+ and CD206+ cells in the synovium; test: Synovial immunohistochemistry for CD68 and CD206 macrophages; conditions: preventative, second preventative study, 27 days after MIA
Procedure: Perfusion-fixated knee joint sections from the second preventative experiment were labelled for the macrophage markers CD68 and CD206 (2 sections per rat). Sections were first dewaxed in xylene before being rehydrated in decreasing concentrations of ethanol (100%, 70%) before being incubated in distilled H2O. Sections were then incubated in a Tris-EDTA buffer (10-mM Tris Base, 1-mM EDTA, 0.05% Tween 20, pH 9.0) at 90°C for 20 minutes. After returning to room temperature, sections were washed in 0.05M Tris-buffered saline (TBS) before being blocked for 10 minutes with a peroxidase blocking solution (BLOXALL, Vector Labs, Burlingame, CA). Sections were washed again in 0.05M TBS before being incubated for an hour in blocking serum (made up as described in the Vectastain Elite ABC-HRP Kit [Vector Labs, PK-6200]). Sections were then incubated in either 1:400 rabbit antimannose (Abcam, Cambridge, United Kingdom: ab64693) or 1:400 mouse anti-CD68 (BioRad, Watford, United Kingdom: MCA341GA) overnight. […] Images were thresholded, and the number of above threshold particles was automatically counted. […] The area of synovia images was calculated, and data are presented as the number of positively stained cells per square millimeter.

[6] = test system: GFAP in the dorsal horn of the spinal cord; test: Spinal cord GFAP immunofluorescence; conditions: preventative 100 mg/kg, 27 days after MIA
Procedure: Astrogliosis was assessed in the dorsal horn of the spinal cord using perfused tissue from study 2: preventative 100-mg/kg L-006235. The lumbar region of spinal cords from MIA rats treated with either vehicle or L-006235 was sectioned (40-µm thick sections). Immunolabelling for glial fibrillary acidic protein (GFAP) was performed as previously described,[35] with sections incubated with 1:100 rabbit anti-GFAP (Abcam: ab48050) overnight at room temperature. Sections were then developed after being incubated with 1:300 Alexafluor 568 conjugated goat antirabbit secondary antibody. Images were taken from the superficial laminae of both the ipsilateral and contralateral dorsal horn with a Zeiss 200M microscope using a 20 × 0.8 numerical aperture objective lens. Images were autothresholded using the Renyi entropy threshold value,[19] and the suprathreshold areas of labelling were then quantified using ImageJ software.

[7] = Plasma pharmacokinetics of L-006235 after repeat oral dosing; conditions: for AUC0–24 / Cmax / Tmax: second preventative study
Procedure: Blood was collected from the L-006235–treated animals for bioanalysis of L-006235 on day 8, 22, and 27 after MIA induction in the first study, on day 9 and 27 after MIA induction in the second study and on day 40 after MIA induction in the third (therapeutic) study (app. 500 µL). Blood was collected through the tail vein at 1, 2, 3, 6, and 24 hours after the dose. In total, 1 to 3 blood samples were collected from each rat for bioanalysis of L-006235. In the first study, samples were collected on day 8 and on day 22 at 2 hours after dose, and a third sample was collected on day 27 at 24 hours after dose. In the second study, one sample was collected at 1, 3, or 6 hours after dose at the first sampling occasion (day 9), and a second sample was collected 2 hours after dose on day 27. In the third study, one sample was collected at 3, 6, or 24 hours after dose on day 40/41. Blood was collected from all animals into separate Li-heparin–coated tubes for plasma separation and placed in room temperature for at least 30 minutes and protected from light before centrifugation (10 minutes, 3600 rpm, at approximately 22°C) within 1 hour of collection. The plasma samples were immediately frozen and stored at minimum −20°C until analysis.
Bioanalysis of L-006235 in rat plasma was performed using protein precipitation followed by liquid chromatography-tandem mass spectrometry detection. Plasma (10 µL) was mixed with 50 µL of acetonitrile containing 100 nM of losartan and indinavir as internal standards. The sample was centrifuged at 20,000g for 10 minutes at 10°C, and the supernatant was diluted 1:1 with MilliQ water. Samples (5 μL) were injected onto the liquid chromatography-tandem mass spectrometry system. The lower limit of quantification (LLOQ) was 1 nM.
Pharmacokinetic (PK) data analysis was performed using the software Phoenix WinNonlin (version 6.4; Certara). Pharmacokinetic data for L-006235 were analysed using noncompartmental methodology, and the following PK parameters were reported: • (1) The area under the plasma concentration vs time curve from time 0 to time 24 hours (AUC0–24) was calculated by the log/linear trapezoidal method. The last sampling time point was 24 hours after dose. • (2) Maximal plasma concentration (Cmax). • (3) Time at maximal concentration (Tmax).

[8] = test system: CTX-I; test: Serum CTX-I biomarker in naive rats; conditions: single oral dose 100 mg/kg
Procedure: (§3) To assess the effects of L-006235 on biomarkers of bone resorption and cartilage degradation, a single dose of L-006235 (100 mg/kg) or vehicle (20% HP-β-CD) was administered through oral gavage to a separate group of naive rats (n = 3/group), and blood (app. 100 µL) was collected at baseline (before dosing) and at 1, 3, 6, and 24 hours after dosing for biomarker analyses. Levels of CTX-I and CTX-II in rat serum were measured using commercially available kits (RatLaps [CTX-I] EIA and Serum Pre-Clinical CartiLaps [CTX-II] ELISA; IDS Nordic, Herlev, Denmark), according to the recommendations by the manufacturer.

[9] = test system: CTX-II; test: Serum CTX-II biomarker in naive rats; conditions: single oral dose 100 mg/kg
Procedure: as §3

[10] = test system: cathepsin K vs cathepsins B, L, and S; conditions: cited from earlier work
[11] = test system: mouse cathepsin S; conditions: read-out: inhibitory effect on mouse cathepsin S; kind of quantity not given; cited from earlier work
[12] = test system: ACLT model of OA; conditions: cited from earlier work
[13] = test system: collagen-induced arthritis model; conditions: 25 mg/kg/d, cited from earlier work
[14] = preventative 30 mg/kg oral twice daily, first preventative study, vs vehicle
[15] = MIA-injected rats, 30 mg/kg oral twice daily
[16] = MIA-injected rats, 100 mg/kg oral twice daily
[17] = saline-injected rats, 100 mg/kg oral twice daily

CN1CCN(c2nc(-c3ccc(C(=O)NC4(C(=O)NCC#N)CCCCC4)cc3)cs2)CC1
IC50 [1]: 7 nM
MIA-induced weight-bearing asymmetry [2, 14]: significantly attenuated
weight-bearing asymmetry ([2]; preventative 100 mg/kg oral twice daily, second preventative study, later time points, vs vehicle): nearly abolished
weight-bearing asymmetry ([2]; preventative 30 and 100 mg/kg oral twice daily (both doses), second preventative study, from day 14 onwards): consistently inhibited
early peak in weight-bearing asymmetry ([2]; preventative 30 and 100 mg/kg, second preventative study, day 3): neither dose of L-006235 altered
established weight-bearing asymmetry ([2]; therapeutic 100 mg/kg oral twice daily from day 14 to 41, vs MIA vehicle): significant inhibitory effect
MIA-induced lowered hind paw withdrawal thresholds [3, 14]: significantly attenuated
hind paw withdrawal thresholds ([3]; preventative dosing, second preventative study, from day 7 onwards): prevent any further lowering in thresholds
lowered hind paw withdrawal thresholds ([3]; therapeutic 100 mg/kg oral twice daily from day 14, vs vehicle): did not alter
joint damage (cartilage damage, synovitis, osteophyte score) ([4]; preventative 30 and 100 mg/kg, end of study day 27): Neither dose of L-006235 significantly altered
joint features (cartilage damage, synovitis, osteophyte score) ([4]; therapeutic 100 mg/kg from day 14 to 41 after MIA): did not alter any of the joint features studied
number of CD68+ cells in the synovium [5]: lower compared with vehicle-treated rats
number of CD206+ cells in the synovium [5]: no significant effect
GFAP immunolabelling in the dorsal horn of the spinal cord [6]: did not alter
AUC0–24 [7, 15]: 6.8 µM·h
Cmax [7, 15]: 0.7 µM
Tmax [7, 15]: 1.0 h
AUC0–24 [7, 16]: 49 µM·h
Cmax [7, 16]: 5.8 µM
Tmax [7, 16]: 1.0 h
dose proportionality of plasma exposure ([7]; dose increased from 30 to 100 mg/kg oral twice daily): more than dose-proportional increase in exposure
AUC0–24 [7, 17]: 39 µM·h
Cmax [7, 17]: 6.9 µM
Tmax [7, 17]: 1.0 h
reduction of serum CTX-I levels compared with baseline ([8]; 1 hour after dose): 20%
reduction of serum CTX-I levels ([8]; 3 hours after dose): No significant reductions
reduction of serum CTX-II levels compared with baseline ([9]; 1 hour after dose): 42%
reduction of serum CTX-II levels compared with baseline ([9]; 3 hours after dose): 24%
serum CTX-II levels ([9]; 6 hours after dose): returned to baseline
selectivity for cathepsin K vs cathepsins B, L, and S [10]: more than 5000 fold
IC50 [11]: 2400 nM
urine CTX-II levels ([12]; 50 mg/kg/d for 7 weeks from 1 week after surgery, at 3 weeks after treatment): significantly lowered
Mankin score of joint pathology ([12]; after 7 weeks of treatment, vs vehicle-treated rabbits): significantly lower
cartilage and bone damage, and clinical score ([13]; preventative): significantly attenuated
cartilage and bone damage, and clinical score ([13]; therapeutic, once clinical signs established): did not have significant effects
